Holding throughout (assay): Kinase profiling in a biochemical assay panel (mobility shift assays and ELISA), %-inhibition at 1 μM; selectivity entropy
Background: In an ELISA, binding on a coated surface is turned into a signal by an enzyme label.

Protein sequences, listed by entry. Tags and fused reporters are not part of them. Residues count along the entry.
UniProt Q13237, whole entry, stated change not applied: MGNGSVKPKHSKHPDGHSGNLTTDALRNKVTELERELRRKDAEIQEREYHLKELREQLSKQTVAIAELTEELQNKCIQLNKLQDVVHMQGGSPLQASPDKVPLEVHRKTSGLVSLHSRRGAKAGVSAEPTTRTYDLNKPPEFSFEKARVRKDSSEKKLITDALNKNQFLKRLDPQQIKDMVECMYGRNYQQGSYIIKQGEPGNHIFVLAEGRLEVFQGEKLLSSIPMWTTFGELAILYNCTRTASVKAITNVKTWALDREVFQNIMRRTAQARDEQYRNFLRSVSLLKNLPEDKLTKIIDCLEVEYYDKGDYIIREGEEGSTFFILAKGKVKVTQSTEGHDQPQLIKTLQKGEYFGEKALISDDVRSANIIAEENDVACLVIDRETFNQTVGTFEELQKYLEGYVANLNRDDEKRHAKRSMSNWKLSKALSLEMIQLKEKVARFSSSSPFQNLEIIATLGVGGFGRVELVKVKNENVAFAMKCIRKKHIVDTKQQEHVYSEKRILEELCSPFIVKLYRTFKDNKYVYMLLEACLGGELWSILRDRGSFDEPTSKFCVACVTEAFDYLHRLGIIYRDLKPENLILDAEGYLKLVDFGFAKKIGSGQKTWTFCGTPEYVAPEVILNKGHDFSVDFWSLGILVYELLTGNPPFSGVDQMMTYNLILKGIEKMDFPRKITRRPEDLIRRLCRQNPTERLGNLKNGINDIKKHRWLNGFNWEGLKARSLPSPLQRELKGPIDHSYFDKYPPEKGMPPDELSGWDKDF
UniProt Q9NWZ3, whole entry, stated change not applied: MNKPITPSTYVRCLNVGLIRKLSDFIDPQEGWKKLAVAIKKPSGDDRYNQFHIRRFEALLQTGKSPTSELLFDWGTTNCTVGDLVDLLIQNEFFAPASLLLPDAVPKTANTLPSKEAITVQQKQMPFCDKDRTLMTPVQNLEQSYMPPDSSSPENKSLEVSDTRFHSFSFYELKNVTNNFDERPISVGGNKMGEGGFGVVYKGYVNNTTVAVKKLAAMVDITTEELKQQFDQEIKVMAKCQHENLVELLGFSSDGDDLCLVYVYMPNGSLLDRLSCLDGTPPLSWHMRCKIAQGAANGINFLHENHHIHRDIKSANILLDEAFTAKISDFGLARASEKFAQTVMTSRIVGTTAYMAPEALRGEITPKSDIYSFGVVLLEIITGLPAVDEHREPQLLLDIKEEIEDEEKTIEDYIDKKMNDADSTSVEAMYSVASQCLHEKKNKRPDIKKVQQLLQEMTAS
UniProt P07949, 29-1114 M918T: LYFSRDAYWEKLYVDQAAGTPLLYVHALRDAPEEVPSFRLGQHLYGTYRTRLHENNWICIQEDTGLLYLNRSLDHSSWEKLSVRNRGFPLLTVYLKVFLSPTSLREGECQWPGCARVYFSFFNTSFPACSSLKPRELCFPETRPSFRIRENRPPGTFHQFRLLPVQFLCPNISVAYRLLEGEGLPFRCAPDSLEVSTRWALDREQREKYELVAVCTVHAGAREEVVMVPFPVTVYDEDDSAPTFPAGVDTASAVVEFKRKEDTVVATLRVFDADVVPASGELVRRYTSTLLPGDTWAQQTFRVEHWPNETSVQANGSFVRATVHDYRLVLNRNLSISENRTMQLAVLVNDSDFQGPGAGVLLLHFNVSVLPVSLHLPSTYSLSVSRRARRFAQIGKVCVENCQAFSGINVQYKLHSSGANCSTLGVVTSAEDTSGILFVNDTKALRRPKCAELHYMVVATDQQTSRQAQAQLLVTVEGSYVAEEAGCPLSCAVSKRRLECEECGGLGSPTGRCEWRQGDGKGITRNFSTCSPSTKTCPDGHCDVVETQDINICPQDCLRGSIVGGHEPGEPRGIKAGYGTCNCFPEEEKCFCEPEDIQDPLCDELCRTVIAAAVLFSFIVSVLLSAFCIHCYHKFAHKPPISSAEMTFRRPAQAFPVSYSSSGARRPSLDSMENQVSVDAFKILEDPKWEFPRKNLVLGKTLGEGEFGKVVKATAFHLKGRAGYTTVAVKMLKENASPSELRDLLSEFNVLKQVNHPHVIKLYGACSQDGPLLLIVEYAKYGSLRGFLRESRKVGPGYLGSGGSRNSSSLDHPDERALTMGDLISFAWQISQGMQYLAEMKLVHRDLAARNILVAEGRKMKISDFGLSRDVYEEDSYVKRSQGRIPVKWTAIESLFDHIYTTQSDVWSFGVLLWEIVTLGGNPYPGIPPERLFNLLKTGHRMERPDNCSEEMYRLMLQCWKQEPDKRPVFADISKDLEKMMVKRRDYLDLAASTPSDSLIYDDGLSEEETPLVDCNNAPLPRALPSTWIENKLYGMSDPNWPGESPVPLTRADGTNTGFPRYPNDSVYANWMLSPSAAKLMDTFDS
UniProt P29376, 17-864, stated change not applied: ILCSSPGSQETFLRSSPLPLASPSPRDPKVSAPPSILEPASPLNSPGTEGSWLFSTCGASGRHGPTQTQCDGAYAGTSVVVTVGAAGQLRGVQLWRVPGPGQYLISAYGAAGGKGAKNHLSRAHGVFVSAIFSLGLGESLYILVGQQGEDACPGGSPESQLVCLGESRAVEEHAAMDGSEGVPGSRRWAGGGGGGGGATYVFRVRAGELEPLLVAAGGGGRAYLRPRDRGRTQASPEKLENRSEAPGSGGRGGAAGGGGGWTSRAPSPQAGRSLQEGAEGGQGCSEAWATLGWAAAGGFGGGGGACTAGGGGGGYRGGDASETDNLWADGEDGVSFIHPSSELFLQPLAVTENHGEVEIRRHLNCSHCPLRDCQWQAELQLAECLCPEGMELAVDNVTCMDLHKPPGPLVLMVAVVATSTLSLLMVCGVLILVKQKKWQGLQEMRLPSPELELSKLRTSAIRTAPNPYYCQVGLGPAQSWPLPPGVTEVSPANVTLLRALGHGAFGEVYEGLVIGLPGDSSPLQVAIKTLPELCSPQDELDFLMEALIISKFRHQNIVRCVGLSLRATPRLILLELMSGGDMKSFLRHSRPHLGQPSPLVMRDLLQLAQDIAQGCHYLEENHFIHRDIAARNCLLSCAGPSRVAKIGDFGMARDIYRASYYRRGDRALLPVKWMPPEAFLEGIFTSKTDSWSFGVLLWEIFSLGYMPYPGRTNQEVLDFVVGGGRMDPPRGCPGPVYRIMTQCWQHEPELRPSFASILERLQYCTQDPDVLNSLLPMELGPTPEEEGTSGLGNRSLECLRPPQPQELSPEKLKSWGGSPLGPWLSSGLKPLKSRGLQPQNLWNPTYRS
UniProt Q96L34, whole entry, stated change not applied: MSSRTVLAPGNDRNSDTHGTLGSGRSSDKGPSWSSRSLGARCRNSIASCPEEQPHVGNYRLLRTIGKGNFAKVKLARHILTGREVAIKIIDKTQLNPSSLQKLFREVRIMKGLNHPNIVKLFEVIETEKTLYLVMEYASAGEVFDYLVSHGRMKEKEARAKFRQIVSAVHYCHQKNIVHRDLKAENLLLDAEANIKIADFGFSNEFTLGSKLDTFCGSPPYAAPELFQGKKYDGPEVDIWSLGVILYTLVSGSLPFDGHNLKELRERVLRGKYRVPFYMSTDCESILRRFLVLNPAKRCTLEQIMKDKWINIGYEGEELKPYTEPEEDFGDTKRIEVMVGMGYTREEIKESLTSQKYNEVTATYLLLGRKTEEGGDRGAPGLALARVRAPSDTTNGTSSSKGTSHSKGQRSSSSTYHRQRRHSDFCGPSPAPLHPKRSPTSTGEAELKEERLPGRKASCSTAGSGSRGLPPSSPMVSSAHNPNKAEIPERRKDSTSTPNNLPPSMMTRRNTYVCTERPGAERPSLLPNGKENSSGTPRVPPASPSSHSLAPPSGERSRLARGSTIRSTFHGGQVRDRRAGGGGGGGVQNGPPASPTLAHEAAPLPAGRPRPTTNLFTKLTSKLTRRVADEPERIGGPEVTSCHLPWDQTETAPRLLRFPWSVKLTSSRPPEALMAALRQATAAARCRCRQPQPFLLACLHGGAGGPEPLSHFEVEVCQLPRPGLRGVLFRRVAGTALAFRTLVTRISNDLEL
UniProt Q16539, whole entry, stated change not applied: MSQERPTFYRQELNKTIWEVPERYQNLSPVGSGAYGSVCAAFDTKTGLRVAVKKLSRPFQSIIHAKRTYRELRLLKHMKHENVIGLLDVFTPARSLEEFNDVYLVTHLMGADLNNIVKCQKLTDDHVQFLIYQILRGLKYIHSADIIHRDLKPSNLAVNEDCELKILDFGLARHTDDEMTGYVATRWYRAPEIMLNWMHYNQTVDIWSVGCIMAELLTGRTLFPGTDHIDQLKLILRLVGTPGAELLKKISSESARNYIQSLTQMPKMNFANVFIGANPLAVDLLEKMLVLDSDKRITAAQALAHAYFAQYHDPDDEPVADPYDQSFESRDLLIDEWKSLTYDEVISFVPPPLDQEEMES
UniProt Q9NRA0, whole entry, stated change not applied: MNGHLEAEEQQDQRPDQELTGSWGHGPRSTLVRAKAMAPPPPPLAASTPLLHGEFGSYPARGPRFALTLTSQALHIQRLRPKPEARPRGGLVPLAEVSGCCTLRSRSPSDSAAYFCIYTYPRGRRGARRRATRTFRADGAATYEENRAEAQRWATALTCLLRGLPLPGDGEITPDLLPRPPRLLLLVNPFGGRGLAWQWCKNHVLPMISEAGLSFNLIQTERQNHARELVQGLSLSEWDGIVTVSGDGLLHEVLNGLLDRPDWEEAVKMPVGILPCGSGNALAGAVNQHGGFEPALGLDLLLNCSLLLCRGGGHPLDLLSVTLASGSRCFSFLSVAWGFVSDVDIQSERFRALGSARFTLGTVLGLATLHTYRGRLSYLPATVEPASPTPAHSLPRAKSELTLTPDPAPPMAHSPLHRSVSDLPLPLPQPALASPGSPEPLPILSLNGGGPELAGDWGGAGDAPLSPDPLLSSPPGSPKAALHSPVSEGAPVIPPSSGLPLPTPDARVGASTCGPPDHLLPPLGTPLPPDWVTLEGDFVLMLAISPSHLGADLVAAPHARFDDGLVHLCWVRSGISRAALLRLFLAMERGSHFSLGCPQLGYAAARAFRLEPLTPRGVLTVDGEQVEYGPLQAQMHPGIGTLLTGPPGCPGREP
UniProt P36894, 24-532, stated change not applied: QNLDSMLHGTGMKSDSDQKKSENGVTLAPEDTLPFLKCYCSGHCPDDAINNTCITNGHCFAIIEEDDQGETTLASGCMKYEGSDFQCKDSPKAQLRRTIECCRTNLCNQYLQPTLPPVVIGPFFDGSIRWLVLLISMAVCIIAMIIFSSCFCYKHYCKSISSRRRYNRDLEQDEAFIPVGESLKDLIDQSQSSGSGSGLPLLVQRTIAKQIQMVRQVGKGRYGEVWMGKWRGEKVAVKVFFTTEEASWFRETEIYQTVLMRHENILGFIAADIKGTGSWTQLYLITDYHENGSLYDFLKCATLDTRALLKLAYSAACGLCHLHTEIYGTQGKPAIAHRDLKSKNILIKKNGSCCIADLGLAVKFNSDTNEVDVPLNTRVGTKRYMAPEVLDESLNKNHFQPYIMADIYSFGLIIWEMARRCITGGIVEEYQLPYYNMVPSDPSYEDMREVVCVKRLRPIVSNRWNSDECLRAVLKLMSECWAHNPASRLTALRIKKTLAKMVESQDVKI
UniProt Q16644, whole entry, stated change not applied: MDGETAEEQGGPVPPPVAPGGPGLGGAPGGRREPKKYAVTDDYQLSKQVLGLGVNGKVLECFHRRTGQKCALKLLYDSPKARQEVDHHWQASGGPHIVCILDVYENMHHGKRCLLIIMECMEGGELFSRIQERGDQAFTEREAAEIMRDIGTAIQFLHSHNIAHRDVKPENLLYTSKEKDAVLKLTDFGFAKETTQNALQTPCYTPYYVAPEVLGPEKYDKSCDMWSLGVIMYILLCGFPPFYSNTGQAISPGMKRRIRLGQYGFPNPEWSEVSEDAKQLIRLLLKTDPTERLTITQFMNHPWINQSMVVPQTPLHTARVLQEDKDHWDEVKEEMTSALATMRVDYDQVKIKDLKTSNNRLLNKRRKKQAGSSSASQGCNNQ
UniProt P51817, whole entry, stated change not applied: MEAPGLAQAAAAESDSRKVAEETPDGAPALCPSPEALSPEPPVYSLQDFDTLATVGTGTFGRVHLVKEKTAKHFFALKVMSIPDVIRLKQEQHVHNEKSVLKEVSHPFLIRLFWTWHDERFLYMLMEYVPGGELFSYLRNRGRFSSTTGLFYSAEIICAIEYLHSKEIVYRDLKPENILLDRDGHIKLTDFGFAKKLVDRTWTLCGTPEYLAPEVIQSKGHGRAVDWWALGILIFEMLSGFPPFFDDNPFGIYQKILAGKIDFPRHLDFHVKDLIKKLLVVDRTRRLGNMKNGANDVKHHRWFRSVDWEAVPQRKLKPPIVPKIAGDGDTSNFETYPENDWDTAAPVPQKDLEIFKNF

In assay [1] the target is panel of more than 300 wild-type and mutant kinases (313 kinase panel) (Homo sapiens, UniProt Q86V86).
For assay [2], the target named is panel of more than 300 wild-type and mutant kinases (313 kinase panel) (Homo sapiens, UniProt Q9NYY3).
Assay [3] has as its target panel of more than 300 wild-type and mutant kinases (313 kinase panel) (Homo sapiens, UniProt Q8TF76). Particulars: 1 µM.
The target of assay [4] is panel of more than 300 wild-type and mutant kinases (313 kinase panel) (Homo sapiens, UniProt P35916). As to conditions: 1 µM.
Assay [5] deals with panel of more than 300 wild-type and mutant kinases (313 kinase panel) (Homo sapiens, UniProt P00540).
The target in assay [6] is panel of more than 300 wild-type and mutant kinases (313 kinase panel) (Homo sapiens, UniProt Q13237). As to conditions: 1 µM.
The target of assay [7] is panel of more than 300 wild-type and mutant kinases (313 kinase panel) (Homo sapiens, UniProt Q9UQB9). As to conditions: 1 µM.
The target in assay [8] is panel of more than 300 wild-type and mutant kinases (313 kinase panel) (Homo sapiens, UniProt Q9NWZ3). As to conditions: 1 µM.
Assay [9] addresses panel of more than 300 wild-type and mutant kinases (313 kinase panel) (Homo sapiens, UniProt Q8N568). Particulars: 1 µM.
Assay [10] concerns the target panel of more than 300 wild-type and mutant kinases (313 kinase panel) (Homo sapiens, UniProt P50613). As to conditions: 1 µM.
Assay [11] has as its target panel of more than 300 wild-type and mutant kinases (313 kinase panel) (Homo sapiens, UniProt P07949, M918T). Particulars: 1 µM.
The target of assay [12] is panel of more than 300 wild-type and mutant kinases (313 kinase panel) (Homo sapiens, UniProt P29376). As to conditions: 1 µM.
Assay [13] addresses panel of more than 300 wild-type and mutant kinases (313 kinase panel) (Homo sapiens, UniProt P53779). Particulars: 1 µM.
Assay [14] addresses panel of more than 300 wild-type and mutant kinases (313 kinase panel) (Homo sapiens, UniProt Q00535). As to conditions: 1 µM.
Assay [15] has as its target panel of more than 300 wild-type and mutant kinases (313 kinase panel) (Homo sapiens, UniProt Q96L34). As to conditions: 1 µM.
Assay [16] has as its target panel of more than 300 wild-type and mutant kinases (313 kinase panel) (Homo sapiens, UniProt Q16539). As to conditions: 1 µM.
The target in assay [17] is panel of more than 300 wild-type and mutant kinases (313 kinase panel) (Homo sapiens, UniProt Q9NRA0).
Assay [18] concerns the target panel of more than 300 wild-type and mutant kinases (313 kinase panel) (Homo sapiens, UniProt P52564). As to conditions: 1 µM.
For assay [19], the target named is panel of more than 300 wild-type and mutant kinases (313 kinase panel) (Homo sapiens, UniProt P36894).
For assay [20], the target named is panel of more than 300 wild-type and mutant kinases (313 kinase panel) (Homo sapiens, UniProt Q16644).
Assay [21] addresses panel of more than 300 wild-type and mutant kinases (313 kinase panel) (Homo sapiens, UniProt P22455). As to conditions: 1 µM.
Assay [22] has as its target panel of more than 300 wild-type and mutant kinases (313 kinase panel) (Homo sapiens, UniProt P22607, K650E). Particulars: 1 µM.
Assay [23] addresses panel of more than 300 wild-type and mutant kinases (313 kinase panel) (Homo sapiens, UniProt P51817). Particulars: 1 µM.

3 compounds from PMC3961306, “Comparison of the Cancer Gene Targeting and Biochemical Selectivities of All Targeted Kinase Inhibitors Approved for Clinical Use” (PLoS ONE, 2014) can be followed below.

With `CNC(=O)c1ccccc1Sc1ccc2c(/C=C/c3ccccn3)n[nH]c2c1` [axitinib], the “%-inhibition of PIM3” value in assay [1] (kinase PIM3, 1 μM) was -7.44%. For the same compound, the “%-inhibition of PLK2” value in [2] (kinase PLK2, 1 μM) is 1%.

On to `COc1cc2ncnc(Nc3ccc(F)c(Cl)c3)c2cc1OCCCN1CCOCC1` [gefitinib], for which, in assay [3], the “%-inhibition of Haspin” value is -6%. For the same compound, the “%-inhibition of FLT4” value in assay [4] stood at 19%. In addition, the “%-inhibition of MOS” value in assay [5] (kinase MOS, 1 μM) is recorded as 0%. In addition, the “%-inhibition, CGK2” value in [6] is reported as 9.48%. Also, the “%-inhibition, AurC” value in assay [7] was determined as 13%. In addition, the “%-inhibition of IRAK4” value in assay [8] is on record as 16%. Moreover, in assay [9], the “%-inhibition of DCAMKL2” value is reported as 2.38%. In addition, the “%-inhibition, CDK7/CycH/MAT1” value in assay [10] was determined as 5%. Moreover, the “%-inhibition of RET(M918T)” value in [11] is reported as 48%. The “%-inhibition of LTK” value in assay [12] amounted to 20%. Also, the “%-inhibition of JNK3” value in assay [13] is listed as 28%. In assay [14], the “%-inhibition, CDK5/p25” value came out at 2.11%. For the same compound, the “%-inhibition of MARK4” value in assay [15] is listed as 16%. Also, the “%-inhibition of p38α” value in assay [16] came to 32%. For the same compound, the “%-inhibition of SPHK2” value in assay [17] (kinase SPHK2, 1 μM) was -4.57%. Further, in [18], the “%-inhibition of MAP2K6” value stood at 12%. The “%-inhibition, BMPR1A” value in assay [19] was 14%. Besides, the “%-inhibition of MAPKAPK3” value in assay [20] (kinase MAPKAPK3, compound at 1 μM) was -0.532%. Moreover, the “%-inhibition of FGFR4” value in assay [21] is 3.4%. In addition, the “%-inhibition of FGFR3(K650E)” value in assay [22] worked out at 28%. The “%-inhibition of PRKX” value in assay [23] came to 2.56%.

As for `C[C@@H]1CCN(C(=O)CC#N)C[C@@H]1N(C)c1ncnc2[nH]ccc12` [tofacitinib], the “%-inhibition of Haspin” value in [3] is -0.537%. Further, in assay [4], the “%-inhibition of FLT4” value worked out at 19%. Moreover, in assay [5] (1 µM), the “%-inhibition of MOS” value is listed as 4%. For the same compound, the “%-inhibition of PIM3” value in [1] (1 µM) is recorded as -3.62%. Besides, in assay [6], the “%-inhibition, CGK2” value is 4.67%. Besides, the “%-inhibition, AurC” value in assay [7] was -4%. Also, in assay [8], the “%-inhibition of IRAK4” value is -3.69%. Also, in assay [9], the “%-inhibition of DCAMKL2” value was -0.503%. In addition, in assay [10], the “%-inhibition, CDK7/CycH/MAT1” value is -6.46%. Further, the “%-inhibition of RET(M918T)” value in assay [11] amounted to 6%. The “%-inhibition of PLK2” value in assay [2] (1 µM) is given as -2.13%. For the same compound, the “%-inhibition of LTK” value in assay [12] came out at 6.42%. Also, the “%-inhibition of JNK3” value in assay [13] was -2%. Besides, the “%-inhibition, CDK5/p25” value in [14] is -15%. Also, the “%-inhibition of MARK4” value in [15] came out at 52%. Further, in [16], the “%-inhibition of p38α” value was -3%. Also, the “%-inhibition of SPHK2” value in assay [17] (1 µM) stood at 2.77%. Also, the “%-inhibition of MAP2K6” value in assay [18] is recorded as 3.35%. Besides, the “%-inhibition, BMPR1A” value in assay [19] is -1.57%. The “%-inhibition of MAPKAPK3” value in assay [20] (1 µM) was -7.59%. For the same compound, the “%-inhibition of FGFR4” value in [21] was found to be 3%. Moreover, the “%-inhibition of FGFR3(K650E)” value in [22] is recorded as 11%. Moreover, the “%-inhibition of PRKX” value in [23] was found to be 8.46%.
